Assay results: PubChem BioAssay (NCI)
Some of these compounds have results that are not shown, active ones among them.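 Test compounds were applied to cells in 96-well plates for 48 hours at 5 doses. TGI marks complete inhibition of growth.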

Columns and labels:
Assay in all cases: NCI-60 cell line screen, 48 h
UACC-257 melanoma = system: UACC-257 melanoma
NCI-H322M lung = system: NCI-H322M lung
T-47D breast = system: T-47D breast
MDA-N = system: MDA-N
HT29 colon = system: HT29 colon
SW-620 colon = system: SW-620 colon
HCT-15 colon = system: HCT-15 colon
A549 NSCLC = system: A549 NSCLC
LOX IMVI melanoma = system: LOX IMVI melanoma
UO-31 renal = system: UO-31 renal
SN12C renal = system: SN12C renal
NCI-H460 lung = system: NCI-H460 lung
ACHN renal = system: ACHN renal
MOLT-4 leukemia = system: MOLT-4 leukemia
HCC-2998 colon = system: HCC-2998 colon
SK-OV-3 ovarian = system: SK-OV-3 ovarian
HL-60(TB) leukemia = system: HL-60(TB) leukemia
UACC-62 melanoma = system: UACC-62 melanoma
CCRF-CEM leukemia = system: CCRF-CEM leukemia
NCI-H522 lung = system: NCI-H522 lung
M14 melanoma = system: M14 melanoma
HCT-116 colon = system: HCT-116 colon
PC-3 prostate = system: PC-3 prostate
NCI-H226 lung = system: NCI-H226 lung
MDA-MB-435 = system: MDA-MB-435
SNB-75 CNS = system: SNB-75 CNS
SNB-19 CNS = system: SNB-19 CNS
OVCAR-3 ovarian = system: OVCAR-3 ovarian
SR leukemia = system: SR leukemia
A498 renal = system: A498 renal
NCI-H23 lung = system: NCI-H23 lung
KM12 colon = system: KM12 colon
HOP-62 NSCLC = system: HOP-62 NSCLC
RXF 393 renal = system: RXF 393 renal
SF-268 CNS = system: SF-268 CNS
IGROV1 ovarian = system: IGROV1 ovarian
BT-549 breast = system: BT-549 breast
HS 578T breast = system: HS 578T breast
SK-MEL-2 melanoma = system: SK-MEL-2 melanoma
OVCAR-8 ovarian = system: OVCAR-8 ovarian
TK-10 renal = system: TK-10 renal
RPMI-8226 leukemia = system: RPMI-8226 leukemia
EKVX NSCLC = system: EKVX NSCLC
SK-MEL-5 melanoma = system: SK-MEL-5 melanoma
DU-145 prostate = system: DU-145 prostate
K-562 leukemia = system: K-562 leukemia
COLO 205 colon = system: COLO 205 colon
MALME-3M melanoma = system: MALME-3M melanoma
U251 CNS = system: U251 CNS
SK-MEL-28 melanoma = system: SK-MEL-28 melanoma
SF-295 CNS = system: SF-295 CNS
OVCAR-5 ovarian = system: OVCAR-5 ovarian
MCF7 breast = system: MCF7 breast
NCI/ADR-RES ovarian = system: NCI/ADR-RES ovarian
786-0 renal = system: 786-0 renal
OVCAR-4 ovarian = system: OVCAR-4 ovarian

SMILES: CC#CC(O)(C(=O)OC1CCN(C)CC1)c1ccccn1 (stereo unspecified)
- TGI (UACC-257 melanoma): > 100 µM
- TGI (NCI-H322M lung): > 100 µM
- TGI (T-47D breast): > 100 µM
- TGI (MDA-N): > 100 µM
- TGI (HT29 colon): > 100 µM
- TGI (SW-620 colon): > 100 µM
- TGI (HCT-15 colon): > 100 µM
- TGI (A549 NSCLC): > 100 µM
- TGI (LOX IMVI melanoma): > 100 µM
- TGI (UO-31 renal): > 100 µM
- TGI (SN12C renal): 61.5 µM
- TGI (NCI-H460 lung): > 100 µM
- TGI (ACHN renal): > 100 µM
- TGI (MOLT-4 leukemia): > 100 µM
- TGI (HCC-2998 colon): > 100 µM
- TGI (SK-OV-3 ovarian): > 100 µM
- TGI (HL-60(TB) leukemia): > 100 µM
- TGI (UACC-62 melanoma): > 100 µM
- TGI (CCRF-CEM leukemia): > 100 µM
- TGI (NCI-H522 lung): > 100 µM
- TGI (M14 melanoma): > 100 µM
- TGI (HCT-116 colon): > 100 µM
- TGI (PC-3 prostate): > 100 µM
- TGI (NCI-H226 lung): > 100 µM
- TGI (MDA-MB-435): 45.4 µM
- TGI (SNB-75 CNS): > 100 µM
- TGI (SNB-19 CNS): > 100 µM
- TGI (OVCAR-3 ovarian): > 100 µM
- TGI (SR leukemia): > 100 µM
- TGI (A498 renal): > 100 µM
- TGI (NCI-H23 lung): > 100 µM
- TGI (KM12 colon): > 100 µM
- TGI (HOP-62 NSCLC): > 100 µM
- TGI (RXF 393 renal): > 100 µM
- TGI (SF-268 CNS): > 100 µM
- TGI (IGROV1 ovarian): > 100 µM
- TGI (BT-549 breast): > 100 µM
- TGI (HS 578T breast): > 100 µM
- TGI (SK-MEL-2 melanoma): > 100 µM
- TGI (OVCAR-8 ovarian): > 100 µM
- TGI (TK-10 renal): > 100 µM
- TGI (RPMI-8226 leukemia): > 100 µM
- TGI (EKVX NSCLC): 78.3 µM
- TGI (SK-MEL-5 melanoma): > 100 µM
- TGI (DU-145 prostate): > 100 µM
- TGI (K-562 leukemia): > 100 µM
- TGI (COLO 205 colon): > 100 µM
- TGI (MALME-3M melanoma): > 100 µM
- TGI (U251 CNS): > 100 µM
- TGI (SK-MEL-28 melanoma): > 100 µM
- TGI (SF-295 CNS): > 100 µM
- TGI (OVCAR-5 ovarian): > 100 µM
- TGI (MCF7 breast): 98.5 µM
- TGI (NCI/ADR-RES ovarian): > 100 µM
- TGI (786-0 renal): > 100 µM
- TGI (OVCAR-4 ovarian): > 100 µM
